Values of other authors in patent publication US8071368B2, “Methods for promoting growth and survival of insulin-secreting cells” (Alizé Pharma SAS, priority 2001, dated 2011).

Protein sequences, listed by entry. Tags and fused reporters are not part of them.
UniProt Q92847, whole entry: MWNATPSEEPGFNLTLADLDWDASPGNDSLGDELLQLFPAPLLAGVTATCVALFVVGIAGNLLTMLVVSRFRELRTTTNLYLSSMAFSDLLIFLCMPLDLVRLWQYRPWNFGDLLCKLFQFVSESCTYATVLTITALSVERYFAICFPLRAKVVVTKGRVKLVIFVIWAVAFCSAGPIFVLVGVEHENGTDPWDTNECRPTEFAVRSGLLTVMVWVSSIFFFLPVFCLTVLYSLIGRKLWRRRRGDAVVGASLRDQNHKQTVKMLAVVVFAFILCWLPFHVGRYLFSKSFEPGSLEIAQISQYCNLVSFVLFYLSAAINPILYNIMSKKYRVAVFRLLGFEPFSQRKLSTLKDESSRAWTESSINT

Legend:
GHS-R1a [1] = molecular target: T1, GHS-R1a (Homo sapiens, UniProt Q92847); conditions: cited from earlier work
GHS-R1a [2] = molecular target: T1, GHS-R1a; conditions: literature statement; cited from earlier work

Substance | IC50 (GHS-R1a [1]; Bednarek et al. 2000) | affinity to GHS-R1a (GHS-R1a [1]; literature statement) | activation of GHS-R1a (GHS-R1a [2])
NH2Gly-Ser-Ser-Phe-Leu-Ser-Pro-Glu-His-Gln-Arg-Val-Gln-Gln-Arg-Lys-Glu-Ser-Lys-Lys-Pro-Pro-Ala-Lys-Leu-Gln-Pro-Arg (GSSFLSPEHQRVQQRKESKKPPAKLQPR; synthetic polypeptide unacylated ghrelin) | > 10 µM | no affinity | –
des Gln-14 Ghrelin: 27 amino acid peptide possessing serine 3 modification by n-octanoic acid (GSSFLSPEHQRVQRKESKKPPAKLQPR; Ser3 n-octanoyl; synthetic polypeptide unacylated ghrelin) | – | – | elicits Ca^2+ fluxes in cloned cells
